# Earlier results as cited in patent US12709745B2 (priority 2012, dated 2026).
# System: ALS
# Settings: in vivo; cited from earlier work
smiles,measurement,value
Nc1nc2ccc(OC(F)(F)F)cc2s1 [riluzole],prolongation of median survival,2-3 months
